Antibody variant affinities, Ab-95 light chain, assay 2

The measurements come from Engelhart et al. 2022 (doi:10.1038/s41597-022-01779-4) through the FLAb antibody collection.

Antigen: PDVDLGDISGINAS, a 14-residue peptide of the SARS-CoV-2 spike HR2 region.

Each scFv is VH, the linker GGGGSGGGGSGGGGS, VL, as in the parent Ab-95, and differs from it in the CDRs of the light chain only.
VH: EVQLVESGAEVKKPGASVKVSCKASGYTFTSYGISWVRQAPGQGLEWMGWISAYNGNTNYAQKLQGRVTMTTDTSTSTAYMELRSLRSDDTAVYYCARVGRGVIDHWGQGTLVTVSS
VL: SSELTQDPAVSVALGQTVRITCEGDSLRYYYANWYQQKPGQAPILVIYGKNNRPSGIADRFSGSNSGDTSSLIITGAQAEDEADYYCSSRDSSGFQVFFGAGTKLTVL

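The parent was found by panning a naive human phage display library on the peptide. AAYL52 was designed without a model: most single CDR substitutions and a random sample of double and triple ones. Affinity was read by AlphaSeq, a pooled yeast mating assay with surface-displayed partners. Mating (16 h, 30 °C) was followed by selection of diploids and sequencing of their barcodes. Each replicate has its own calibration line, from reference interactions of the BCL2 family. The assay was run in three technical replicates.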

Variants are written as CDR1, CDR2 and CDR3 of the light chain (limits as in the source). Parent: EGDSLRYYYAN, GKNNRPS, SSRDSSGFQVF.
Affinities are written as log10 Kd with Kd in nM; a lower number is a better binder.
Averages over replicates are reported, and they cover detected replicates only.
"n.d." marks a missing value. The strain was present, yet no cells mated with the target were sequenced in that replicate, which points to weak or no binding.
Three control strains display no target. For library AAYL52, 28% of the pairings with them gave a signal, with a median of 3.91 and one signal in twenty below 2.90, so weak values seen in few replicates may be background. The control count says in how many pairings with the empty strains this scFv gave a signal, with their mean in brackets.
Parent in this assay: reference entry 2.31, copy in this library 2.25.

CDR-L1	CDR-L2	CDR-L3	replicates, log10 nM	mean log10 Kd (nM)	control signals
EGDSLRYYYAN	KKNNRPS	SSRDNSGRQVF	4.84 / n.d. / 4.46	4.65	3 of 9 (4.04)
EGDSLRYYYAN	GKNARPS	NSRDSGGFQVF	4.49 / 3.79 / 3.17	3.82	3 of 9 (3.79)
EGDSLRYYYAN	GKNNRPS	SERDSSMFQAF	3.96 / n.d. / 2.80	3.38	5 of 9 (4.05)
EGDSLRYYYAN	GKQGRPS	SYRDSSGFQVF	3.24 / n.d. / 3.21	3.23	2 of 9 (3.24)
EGDSLRYIYAN	GKNNRPS	SSRGSSGFQEF	n.d. / n.d. / n.d.	n.d.	2 of 9 (4.19)
EGDSLRYYYAN	NYNLRPS	SSRDSSGFQVF	2.76 / 2.55 / 2.78	2.69	5 of 9 (3.95)
EGDSLRYYYAN	GKNNRDS	PSRDSSGLQVF	2.84 / 3.70 / 1.77	2.77	3 of 9 (3.51)
EGDSLRYYYAP	GKNNRKS	SSRDSSGAQVF	4.81 / 4.97 / n.d.	4.89	3 of 9 (3.80)
EHDSLRYYYAN	GKNNRVS	SSRDCSGFQVF	n.d. / n.d. / n.d.	n.d.	1 of 9 (3.89)
EGDSLYYYYAN	GKNNRPS	SQADSSGFQVF	4.99 / 4.09 / 2.84	3.97	4 of 9 (3.98)
EGDSLRSYYAN	GKNGRPS	SSRDSYGFQVF	2.85 / 2.34 / 1.87	2.36	3 of 9 (3.68)
EGDSLRYYYYN	GKNNRPS	SSRCSSSFQVF	n.d. / n.d. / 3.95	3.95	1 of 9 (4.22)
EGDVLRYYAAN	GKNNRPS	SSRDSTGFQVF	3.12 / 3.26 / 3.17	3.18	1 of 9 (4.92)
EGDSLLYYYAN	GKNNRPS	SSRDISDFQVF	1.86 / 1.61 / 0.99	1.49	4 of 9 (3.52)
EGDSLRKYYAN	GKNNAPS	SSRDSLGFQVF	n.d. / n.d. / n.d.	n.d.	3 of 9 (4.34)
EGDSYRAYYAN	GKMNRPS	SSRDSSGFQVF	3.72 / n.d. / n.d.	3.72	4 of 9 (4.08)
EGCSFRYYYAN	GKNNRPS	SSRSSSGFQVF	5.53 / n.d. / n.d.	5.53	4 of 9 (4.07)
EGDSLRYYYLN	GKNNRYS	SSRDSSGFPVF	2.95 / 4.55 / n.d.	3.75	5 of 9 (4.11)
EGDSLRYYYAN	GKNNRPS	SARDSSGNQVF	1.98 / 2.12 / 1.76	1.95	3 of 9 (3.49)
EGDSLRYYYAE	GKNNRPK	SIRDSSGFQVF	n.d. / n.d. / n.d.	n.d.	2 of 9 (4.06)
EGDSLRGYYAN	GKNNRPS	SSRDSSGFEVS	n.d. / 4.14 / n.d.	4.14	5 of 9 (3.99)
EPDSLRYYYAN	GKNNRPS	SSRDDSGLQVF	n.d. / n.d. / n.d.	n.d.	0 of 9
EGDSLRYYYAN	GKDNRPS	SPRDNSGFQVF	3.62 / 2.96 / 3.88	3.49	4 of 9 (3.74)
EGDSLTAYYAI	GKNNRPS	SSRDSSGFQVF	3.45 / 3.35 / n.d.	3.40	2 of 9 (5.17)
EGDSLRYYYAN	GKNNRPS	SSRFSKGFQSF	2.73 / 2.33 / n.d.	2.53	1 of 9 (3.09)
EGDSLRYYYAN	GKNNHPS	SSADSSMFQVF	n.d. / 3.40 / 2.62	3.01	2 of 9 (3.83)
EGDSLRYQYAL	GKNLRPS	SSRDSSGFQVF	2.95 / 2.75 / 2.68	2.79	3 of 9 (3.78)
RGDSLRYWYAN	GKNNRPS	SSRESSGFQVF	2.02 / 2.27 / 2.71	2.34	3 of 9 (3.90)
EGDSLRYYYAN	GSNNRPS	SSTDDSGFQVF	4.58 / n.d. / n.d.	4.58	1 of 9 (3.50)
EQDSLRYYYAN	GKNNRPS	SSRDSSGHQVA	3.59 / 3.89 / n.d.	3.74	2 of 9 (4.42)
EGDSLRYYYAN	GKNNRPS	GSRDTSGFQVH	2.29 / 2.26 / 2.03	2.19	5 of 9 (4.05)
EGDSLRYYKAN	GKNNRPS	SPRDSSGFQVF	4.75 / 2.85 / 2.64	3.41	5 of 9 (4.09)
EGDSLRYVYAN	GKNNRPS	SSRDSVGFQVV	5.09 / 2.80 / n.d.	3.95	2 of 9 (4.32)
EGDSLRYYYAN	GKNWRAS	SSRDSSGFQLF	3.13 / 4.80 / 4.42	4.11	4 of 9 (4.33)
EGDSLRYYYAN	GKNNRPH	SSRDSSGFQVF	2.32 / 2.46 / 2.06	2.28	3 of 9 (3.85)
EGDSLRYYYAN	GKNNRPS	SSRHSVGFQVF	2.49 / 3.29 / 3.58	3.12	0 of 9
EGDSLRYCYAN	GKNNRNS	SSRDSQGFQVF	n.d. / 4.52 / 2.57	3.55	3 of 9 (3.93)

Excerpt, the final 4 entries:

{"CDR-L1": "EGDSLRYYYAN", "CDR-L2": "GKNWRAS", "CDR-L3": "SSRDSSGFQLF", "replicates, log10 nM": "3.13 / 4.80 / 4.42", "mean log10 Kd (nM)": "4.11", "control signals": "4 of 9 (4.33)"}
{"CDR-L1": "EGDSLRYYYAN", "CDR-L2": "GKNNRPH", "CDR-L3": "SSRDSSGFQVF", "replicates, log10 nM": "2.32 / 2.46 / 2.06", "mean log10 Kd (nM)": "2.28", "control signals": "3 of 9 (3.85)"}
{"CDR-L1": "EGDSLRYYYAN", "CDR-L2": "GKNNRPS", "CDR-L3": "SSRHSVGFQVF", "replicates, log10 nM": "2.49 / 3.29 / 3.58", "mean log10 Kd (nM)": "3.12", "control signals": "0 of 9"}
{"CDR-L1": "EGDSLRYCYAN", "CDR-L2": "GKNNRNS", "CDR-L3": "SSRDSQGFQVF", "replicates, log10 nM": "n.d. / 4.52 / 2.57", "mean log10 Kd (nM)": "3.55", "control signals": "3 of 9 (3.93)"}